Protein sequences, listed by entry. Tags and fused reporters are not part of them.
UniProt P41143, whole entry: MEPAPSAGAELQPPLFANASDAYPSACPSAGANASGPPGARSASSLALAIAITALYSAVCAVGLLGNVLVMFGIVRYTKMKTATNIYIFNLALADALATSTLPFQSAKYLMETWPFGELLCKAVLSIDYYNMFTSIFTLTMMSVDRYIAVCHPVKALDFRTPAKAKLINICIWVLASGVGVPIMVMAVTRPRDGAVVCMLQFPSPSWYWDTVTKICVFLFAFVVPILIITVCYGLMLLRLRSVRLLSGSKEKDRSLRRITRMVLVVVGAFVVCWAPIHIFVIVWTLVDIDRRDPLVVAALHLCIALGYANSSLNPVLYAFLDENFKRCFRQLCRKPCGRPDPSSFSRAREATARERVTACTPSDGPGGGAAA

In BindingDB's records for 2542556:

biological target: Delta-type opioid receptor (Homo sapiens, UniProt P41143); test: ASSAY_NAME: ChEBML_146883 DESCRIPTION: Inhibitory activity against Opioid receptor delta 1 of guinea pig was determined by using [3H]DADLE radioligand

Structure (SMILES) | IC50 [µM]
CN1CCC[C@@]12CCCC[C@@H]2NC(=O)c1ccc(Br)cc1 | > 10
CN(C(=O)c1ccc(Br)cc1)[C@H]1CCCC[C@@]12CCCN2C | > 10
CN1CCC[C@@]12CCCC[C@@H]2NC(=O)c1ccc(F)cc1 | > 10
CN(C(=O)c1ccc(C(F)(F)F)cc1)[C@H]1CCCC[C@@]12CCCN2C | > 10
CN1CCC[C@@]12CCCC[C@@H]2NC(=O)c1ccccc1Br | > 10
CN(C(=O)c1ccc(Cl)c(Cl)c1)[C@H]1CCCC[C@@]12CCCN2C | > 10
Cc1cc(Br)ccc1C(=O)N(C)[C@H]1CCCC[C@@]12CCCN2C | > 10
CN(C(=O)c1ccc(Br)c(Br)c1)[C@H]1CCCC[C@@]12CCCN2C | 2.3
CN1CCC[C@@]12CCCC[C@@H]2NC(=O)c1ccc(Cl)cc1 | > 10
CN1CCC[C@@]12CCCC[C@@H]2NC(=O)c1cccc(Br)c1 | > 10
CN(C(=O)c1ccc(Br)cc1Cl)[C@H]1CCCC[C@@]12CCCN2C | 9
CN1CCC[C@@]12CCCC[C@@H]2N(CC1CC1)C(=O)c1ccc(Br)cc1 | 6.3
COc1ccc(C(=O)N[C@H]2CCCC[C@@]23CCCN3C)cc1 | > 10
Cc1ccc(C(=O)N(C)[C@H]2CCCC[C@@]23CCCN3C)cc1 | > 10
CN1CCC[C@@]12CCCC[C@@H]2NC(=O)c1ccc(Cl)c(Cl)c1 | > 10
CC(C)CN(C(=O)c1ccc(Br)cc1)[C@H]1CCCC[C@@]12CCCN2C | > 10
